Test results: patent US10059688B2, “Protein tyrosine kinase modulators and methods of use” (BETTA PHARMACEUTICALS CO., LTD., priority 2013, dated 2018)

System: A549 (EGFR WT) NSCLC cells
Assay: Cell proliferation assay (MTS cell viability)
Assay type: cell-based
Settings: Homo sapiens, 72 h, 3 days of exposure

## COc1cc(Nc2ncc(Cl)c(Nc3ccccc3C(=O)C(=O)N(C)C)n2)ccc1N1CCN(C)CC1 [Example 61, 2-(2-(5-chloro-2-(3-methoxy-4-(4-methylpiperazin-1-yl)phenylamino)pyrimidin-4-ylamino)phenyl)-N,N-dimethyl-2-oxoacetamide]
  IC50: 740 nM
